Laboratory results from PubChem BioAssay AID720579 (National Center for Advancing Translational Sciences (NCATS), 2013).
Out of some 310,000 compounds screened, about 1,900 (0.61%) were called active. Listed are the inconclusive results; actives and inactives stand elsewhere. The call rests on the fitted dose curve; tested in A549 cells.

Assay: qHTS for Stage-Specific Inhibitors of Vaccinia Orthopoxvirus: mCherry Reporter Primary qHTS; further: nearly all actives have a fitted effect of over 35% in size
Details: Vaccinia virus mCherry reporter infection, fluorescence
Potency means the concentration at half of the fitted maximal effect.

Structure (SMILES)	Potency
C=C(C=O)CC1CC(O)[C@]2(C)OC3CC4OC5C[C@]6(C)O[C@]7(C)CCC8OC9C[C@]%10(C)OC%11C(C)=CC(=O)OC%11CC%10OC9C[C@@H](C)C8OC7CC6O[C@]5(C)CC5OC5C4OC3CC2O1 (stereo partly drawn)	inconclusive: 5.01 µM
CN(C)C(=O)c1cc([N+](=O)[O-])cc2c1-c1c(cc([N+](=O)[O-])cc1[N+](=O)[O-])C2=O	inconclusive: 2.82 µM
Cc1ccc(NCCc2c([N+](=O)[O-])cc([N+](=O)[O-])cc2[N+](=O)[O-])cc1	inconclusive: 14.1 µM
CC(O)C1C=CC=CC(=O)OC2CC3OC4C5OC5(C)CCC4(COC(=O)C4OC4(C)C(O)CO1)C2(C)C31CO1 (stereo not drawn)	inconclusive: 1 µM
Cc1ccc2nc3c(c(C)c2c1)CC(C(Cl)Cl)S3 (stereo not drawn)	inconclusive: 22.4 µM
O=[N+]([O-])c1ccc(Nc2ccc(Oc3ccc([N+](=O)[O-])cc3[N+](=O)[O-])cc2)c([N+](=O)[O-])c1	inconclusive: 12.6 µM
O=[N+]([O-])c1cc([N+](=O)[O-])c(CCNc2ccccc2)c([N+](=O)[O-])c1	inconclusive: 12.6 µM
C=C(C=O)C[C@@H]1C[C@H](O)C2OC3C[C@]4(C)OC5/C=C\CC6OC7C(CC=CCC6OC5CCCC4OC3CC2O1)OC1CC2OC3CC(=O)OC3C[C@@H](C)C[C@@]2(C)OC1C[C@@H]7C (stereo partly drawn)	inconclusive: 11.2 µM
CC(=O)O[C@H]1C[C@@H]2OC3C=C(C)CCC3(C)[C@@]1(C)[C@@]21CO1 (stereo partly drawn)	inconclusive: 1.12 µM
Oc1ccccc1CNc1ccccn1	inconclusive: 2.24 µM
O=C(NC(Sc1ccncn1)C(Cl)(Cl)Cl)c1ccccc1 (stereo not drawn)	inconclusive: 28.2 µM
O=c1c2cc([N+](=O)[O-])ccc2[nH]c2c([N+](=O)[O-])cc([N+](=O)[O-])cc12	inconclusive: 1 µM
CC(=O)NC(SC(=S)N(C)C)C(Cl)(Cl)Cl (stereo not drawn)	inconclusive: 7.08 µM
